This is an account of results in ChEMBL document CHEMBL1649477, “Trypanothione reductase high-throughput screening campaign identifies novel classes of inhibitors with antiparasitic activity” (Antimicrob Agents Chemother, 2009).

This data set relates to L6. Put plainly: Cytotoxicity against rat L6 cells. The data set is classed as cell-based.

Usually CC50 stands for the concentration that lowers cell viability or growth by half. Compound `CC(=O)OC1(C#N)CN2CCC1CC2` (stereo unspecified) returned a CC50 of 18 µM.
